Source: PubChem BioAssay AID652048 (National Center for Advancing Translational Sciences (NCATS), 2013)
“And” between values parts separate entries of the source, which are not always exact repeats. Equal entries are not always repeated. The entries are a selection whose mix differs from that of the whole data set. The source made the active and inactive calls. Rule as the data show it: active = max activation above about 30%; inactive = the rest.

Protein sequences, listed by entry. Tags and fused reporters are not part of them.
UniProt P35462, whole entry: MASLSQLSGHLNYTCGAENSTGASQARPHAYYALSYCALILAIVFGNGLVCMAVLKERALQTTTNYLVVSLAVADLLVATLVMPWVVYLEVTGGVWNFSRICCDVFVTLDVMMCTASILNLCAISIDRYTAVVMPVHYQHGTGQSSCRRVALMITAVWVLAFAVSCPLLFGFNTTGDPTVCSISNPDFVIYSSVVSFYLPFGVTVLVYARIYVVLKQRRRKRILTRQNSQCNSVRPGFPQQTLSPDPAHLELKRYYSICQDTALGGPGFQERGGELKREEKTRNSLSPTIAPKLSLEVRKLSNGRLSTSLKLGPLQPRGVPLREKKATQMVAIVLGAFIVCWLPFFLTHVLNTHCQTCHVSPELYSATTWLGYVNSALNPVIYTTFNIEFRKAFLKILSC

biological target: D(3) dopamine receptor (Homo sapiens) (UniProt P35462); assay: qHTS of D3 Dopamine Receptor Agonist: qHTS; conditions: D3R DiscoveRx beta-arrestin cells, luminescence, 90 min; stronger effect = higher value; also: 0% is about no effect
From the text: D3 DARs represent a very important target for the treatment of several neuropsychiatric disorders. Indeed, one of the most promising therapeutic applications for the D3 DAR is in the area of addiction and related disorders. […] These findings have been observed with a number of addictive substances including cocaine, amphetamine, nicotine, and alcohol. […] Antagonism of the D3 DAR may also be therapeutic in the treatment of schizophrenia or psychosis. […] Since the D3 DAR is expressed in areas of the CNS associated with the control of mood and emotion, it has been hypothesized that selective antagonism of the D3 DAR may be effective in treating psychosis without inducing the motor side effects typically seen with D2 DAR antagonists.
This part of the project aims to discover novel agonist.
NIH Chemical Genomics Center [NCGC]
NIH Molecular Libraries Probe Centers Network [MLPCN]
Assay Submitter (PI): David Sibley, NINDS
Freshly passaged cells are plated in 1536 well white, solid bottom plates at a density of 1500 cells/well in 3microl of complete media. After an overnight incubation at 37 degrees C in 5% CO2, cells are loaded with 23nl of test compound from the compound library (as well as dopamine controls) using a 1536 pintool and incubated at 37 degrees C for 90 minutes. Two microliters of DiscoveRx reagent is then added to all cells, and they are incubated for an additional 30 - 60 minutes at room temperature. Following incubation, luminescence is measured on a ViewLux CCD-based luminometer reader using a 20 sec exposure time.

Compound | max activation
CN(CCCl)CCCl | inactive: 3.73%
CCC(=O)N(c1ccccc1)C1(COC)CCN(CCn2nnn(CC)c2=O)CC1 | inactive: 5.82% and inactive: -9.63%
CCC(=O)N(c1ccccc1)C1(COC)CCN(CCc2cccs2)CC1 | inactive: -22.9% and inactive: -65%
